Measurements: publication PMC5389348 (Scientific Reports, 2017)

By UniProt entry, the sequences of proteins in these tests, tags left out. Residues count along the entry.
UniProt Q08499, 1-584 isoform Q08499-4: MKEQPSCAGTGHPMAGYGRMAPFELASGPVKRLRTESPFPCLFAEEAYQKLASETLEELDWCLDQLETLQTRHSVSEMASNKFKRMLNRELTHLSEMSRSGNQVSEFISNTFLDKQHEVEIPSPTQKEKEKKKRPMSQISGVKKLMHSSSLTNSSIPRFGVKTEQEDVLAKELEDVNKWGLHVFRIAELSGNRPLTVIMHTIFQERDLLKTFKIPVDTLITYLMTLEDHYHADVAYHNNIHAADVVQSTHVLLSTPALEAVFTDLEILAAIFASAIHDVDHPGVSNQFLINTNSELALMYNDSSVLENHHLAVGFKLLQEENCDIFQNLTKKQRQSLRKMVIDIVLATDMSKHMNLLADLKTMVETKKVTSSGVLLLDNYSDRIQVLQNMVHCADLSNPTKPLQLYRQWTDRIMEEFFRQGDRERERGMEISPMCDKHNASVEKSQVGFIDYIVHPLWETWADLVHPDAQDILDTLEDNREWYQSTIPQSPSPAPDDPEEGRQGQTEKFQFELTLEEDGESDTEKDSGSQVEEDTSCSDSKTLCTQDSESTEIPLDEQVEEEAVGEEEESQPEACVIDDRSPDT
UniProt Q08499, 1-745 isoform Q08499-6: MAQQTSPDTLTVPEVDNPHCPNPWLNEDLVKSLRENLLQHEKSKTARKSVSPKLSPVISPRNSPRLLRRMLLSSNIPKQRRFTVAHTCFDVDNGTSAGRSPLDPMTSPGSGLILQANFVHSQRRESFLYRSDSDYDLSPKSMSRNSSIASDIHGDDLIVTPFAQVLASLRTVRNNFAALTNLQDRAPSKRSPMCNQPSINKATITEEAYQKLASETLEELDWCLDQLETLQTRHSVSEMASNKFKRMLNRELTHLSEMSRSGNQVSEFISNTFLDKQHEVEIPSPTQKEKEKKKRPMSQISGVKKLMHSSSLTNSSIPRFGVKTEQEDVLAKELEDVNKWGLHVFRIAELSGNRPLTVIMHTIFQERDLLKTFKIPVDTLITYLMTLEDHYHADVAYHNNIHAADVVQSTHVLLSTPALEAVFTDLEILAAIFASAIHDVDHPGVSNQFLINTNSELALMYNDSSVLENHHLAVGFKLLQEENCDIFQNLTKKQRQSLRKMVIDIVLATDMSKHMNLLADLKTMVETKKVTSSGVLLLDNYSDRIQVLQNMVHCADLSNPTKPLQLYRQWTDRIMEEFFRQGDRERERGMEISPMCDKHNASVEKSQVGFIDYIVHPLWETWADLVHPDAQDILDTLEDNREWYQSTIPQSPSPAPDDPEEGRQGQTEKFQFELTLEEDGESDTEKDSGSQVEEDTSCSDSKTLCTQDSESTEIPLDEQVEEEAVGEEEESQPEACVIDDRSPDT
UniProt Q08499, 1-748 isoform Q08499-11: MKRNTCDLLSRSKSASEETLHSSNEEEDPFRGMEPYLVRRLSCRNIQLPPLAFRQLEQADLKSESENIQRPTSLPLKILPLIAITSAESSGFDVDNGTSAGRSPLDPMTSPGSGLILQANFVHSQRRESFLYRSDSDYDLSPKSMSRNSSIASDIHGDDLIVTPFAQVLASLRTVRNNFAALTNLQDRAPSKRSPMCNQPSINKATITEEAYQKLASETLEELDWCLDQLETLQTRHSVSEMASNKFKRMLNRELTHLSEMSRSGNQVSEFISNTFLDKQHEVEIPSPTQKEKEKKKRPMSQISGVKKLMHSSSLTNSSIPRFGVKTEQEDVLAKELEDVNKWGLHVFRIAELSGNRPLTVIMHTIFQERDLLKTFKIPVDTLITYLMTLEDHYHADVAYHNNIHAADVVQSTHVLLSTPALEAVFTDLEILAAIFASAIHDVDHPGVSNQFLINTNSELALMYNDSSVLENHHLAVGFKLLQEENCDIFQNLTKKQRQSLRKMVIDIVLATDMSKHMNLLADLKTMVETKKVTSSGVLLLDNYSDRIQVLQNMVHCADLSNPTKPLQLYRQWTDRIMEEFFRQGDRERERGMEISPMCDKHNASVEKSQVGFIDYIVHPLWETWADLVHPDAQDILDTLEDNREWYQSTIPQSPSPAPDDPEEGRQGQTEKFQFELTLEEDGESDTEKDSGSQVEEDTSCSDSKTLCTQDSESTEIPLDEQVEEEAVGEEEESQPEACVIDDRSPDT
UniProt Q08499, 303-809: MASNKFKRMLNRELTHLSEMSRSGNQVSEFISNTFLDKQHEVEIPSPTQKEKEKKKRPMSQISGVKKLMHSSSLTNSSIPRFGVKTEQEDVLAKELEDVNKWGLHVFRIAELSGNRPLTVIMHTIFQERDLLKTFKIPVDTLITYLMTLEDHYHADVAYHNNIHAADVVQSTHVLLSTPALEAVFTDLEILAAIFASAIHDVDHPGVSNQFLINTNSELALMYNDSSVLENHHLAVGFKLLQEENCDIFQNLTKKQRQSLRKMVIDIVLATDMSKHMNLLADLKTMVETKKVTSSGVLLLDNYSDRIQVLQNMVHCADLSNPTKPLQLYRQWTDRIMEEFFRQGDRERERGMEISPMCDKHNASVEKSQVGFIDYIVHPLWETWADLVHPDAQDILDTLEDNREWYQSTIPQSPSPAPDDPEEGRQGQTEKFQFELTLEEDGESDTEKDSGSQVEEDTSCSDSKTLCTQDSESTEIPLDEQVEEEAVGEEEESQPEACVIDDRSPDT

How the values were obtained:
Assay in all cases: biochemical
Settings in all cases: read-out: GEBR-32a % inhibition
PDE4D1 = PDE4D1 (Homo sapiens, UniProt Q08499)
PDE4D5 = PDE4D5 (Homo sapiens, UniProt Q08499)
PDE4D7 = PDE4D7 (Homo sapiens, UniProt Q08499)
PDE4D2 = PDE4D2 (Homo sapiens, UniProt Q08499)

Compound `OC(CN1CCOCC1)Cn1ccc(-c2ccc(OC(F)F)c(OC3CCCC3)c2)n1` (stereo not shown) [GEBR-32a] has an inhibition at 10 µM (PDE4D1) of 82.2%, an inhibition at 10 µM (PDE4D5) of 67.3% and an inhibition at 10 µM (PDE4D7) of 90.7%. For the same compound, the inhibition at 10 µM (PDE4D2) was 87.8%.
